Laboratory results: US20090099157A1, “TETRAHYDRO-PYRAZOLO-PYRIDINE THIOETHER MODULATORS OF CATHEPSIN S” (priority 2007, published 2009)

Amino acid sequences for entries named in this document (tags omitted). Residues count along the entry.
UniProt P25774, 115-331: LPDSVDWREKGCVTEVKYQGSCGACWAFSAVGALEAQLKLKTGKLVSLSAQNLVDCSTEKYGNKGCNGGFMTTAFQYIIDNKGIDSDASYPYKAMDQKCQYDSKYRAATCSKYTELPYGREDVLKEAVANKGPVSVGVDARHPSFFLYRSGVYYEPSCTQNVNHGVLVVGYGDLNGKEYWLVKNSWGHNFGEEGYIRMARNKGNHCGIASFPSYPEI

What follows are molecules tested against Recombinant human cathepsin S (CatS) (Homo sapiens, UniProt P25774) (assay: biochemical).

| Compound | IC50 [nM] |
| --- | --- |
| CC1(O)CCN(C[C@H](O)Cn2nc(-c3ccc(C(F)(F)F)c(SCCN4CCC5CCCCC5C4)c3)c3c2CCN(S(C)(=O)=O)C3)CC1 (stereo partly drawn) [Example 197, 1-[(2S)-2-Hydroxy-3-[5-(methylsulfonyl)-3-[3-{[2-(octahydroisoquinolin-2(1H)-yl)ethyl]sulfanyl}-4-(trifluoromethyl)phenyl]-4,5,6,7-tetrahydro-1H-pyrazolo[4,3-c]pyridin-1-yl}propyl]-4-methylpiperidin-4-ol] | 270 |
| CS(=O)(=O)NC1CCN(CC(O)Cn2nc(-c3ccc(C(F)(F)F)c(SCCN4CCCC4)c3)c3c2CCN(S(C)(=O)=O)C3)CC1 (centres unmarked) [Example 669, N-(1-{2-Hydroxy-3-[5-(methylsulfonyl)-3-{3-[(2-pyrrolidin-1-ylethyl)sulfanyl]-4-(trifluoromethyl)phenyl}-4,5,6,7-tetrahydro-1H-pyrazolo[4,3-c]pyridin-1-yl]propyl}piperidin-4-yl)methanesulfonamide] | 170 |
| CS(=O)(=O)N1CCc2c(c(-c3ccc(C(F)(F)F)c(SCCN4CCC(O)CC4)c3)nn2CC(O)CN2CCC(c3ccccn3)CC2)C1 (centres unmarked) [Example 172, 1-(2-{[5-{1-[2-Hydroxy-3-(4-pyridin-2-ylpiperidin-1-yl)propyl]-5-(methylsulfonyl)-4,5,6,7-tetrahydro-1H-pyrazolo[4,3-c]pyridin-3-yl}-2-(trifluoromethyl)phenyl]sulfanyl}ethyl)piperidin-4-ol] | 20 |
| CC(C)(C)C1CCN(C[C@H](O)Cn2nc(-c3ccc(C(F)(F)F)c(SCCN4CC[C@H](F)C4)c3)c3c2CCN(S(C)(=O)=O)C3)CC1 [Example 605, (2S)-1-[4-(1,1-Dimethylethyl)piperidin-1-yl]-3-{3-[3-({2-[(3S)-3-fluoropyrrolidin-1-yl]ethyl}sulfanyl)-4-(trifluoromethyl)phenyl]-5-(methylsulfonyl)-4,5,6,7-tetrahydro-1H-pyrazolo[4,3-c]pyridin-1-yl}propan-2-ol] | 220 |
| CS(=O)(=O)N1CCc2c(c(-c3ccc(C(F)(F)F)c(SCCN4CCCC4)c3)nn2CC(O)CN2CCC(NC(=O)CO)CC2)C1 (centres unmarked) [Example 603, 2-Hydroxy-N-(1-{2-hydroxy-3-[5-(methylsulfonyl)-3-{3-[(2-pyrrolidin-1-ylethyl)sulfanyl]-4-(trifluoromethyl)phenyl}-4,5,6,7-tetrahydro-1H-pyrazolo[4,3-c]pyridin-1-yl]propyl}piperidin-4-yl)acetamide] | 80 |
| CS(=O)(=O)N1CCc2c(c(-c3ccc(C(F)(F)F)c(SCC(=O)N4CCCC4)c3)nn2CC(O)CN2CCC(N3CCCC3=O)CC2)C1 (centres unmarked) [Example 65, 1-[1-(2-Hydroxy-3-{5-methanesulfonyl-3-[3-(2-oxo-2-pyrrolidin-1-yl-ethylsulfanyl)-4-trifluoromethyl-phenyl]-4,5,6,7-tetrahydro-pyrazolo[4,3-c]pyridin-1-yl}-propyl)-piperidin-4-yl]-pyrrolidin-2-one] | 100 |
| CS(=O)(=O)N1CCc2c(c(-c3ccc(C(F)(F)F)c(SCCN4CCCC4)c3)nn2CC(O)CN2CCC(c3ccccc3)CC2)C1 (centres unmarked) [Example 616, 1-[5-(Methylsulfonyl)-3-{3-[(2-pyrrolidin-1-ylethyl)sulfanyl]-4-(trifluoromethyl)phenyl}-4,5,6,7-tetrahydro-1H-pyrazolo[4,3-c]pyridin-1-yl]-3-(4-phenylpiperidin-1-yl)propan-2-ol] | 25 |
| CC1CCN(CCSc2cc(-c3nn(C[C@@H](O)CN4CCC(NC(=O)[C@H](C)O)CC4)c4c3CN(S(C)(=O)=O)CC4)ccc2C(F)(F)F)CC1 [Example 761, (2S)-2-Hydroxy-N-{1-[(2S)-2-hydroxy-3-{3-[3-{[2-(4-methylpiperidin-1-yl)ethyl]sulfanyl}-4-(trifluoromethyl)phenyl]-5-(methylsulfonyl)-4,5,6,7-tetrahydro-1H-pyrazolo[4,3-c]pyridin-1-yl}propyl]piperidin-4-yl}propanamide] | 65 |
| CC1CC(C)CN(CCSc2cc(-c3nn(CCCN4CCC(N5CCCC5=O)CC4)c4c3CN(S(C)(=O)=O)CC4)ccc2C(F)(F)F)C1 (centres unmarked) [Example 9, 1-{1-[3-(3-{3-[2-(3,5-Dimethyl-piperidin-1-yl)-ethylsulfanyl]-4-trifluoromethyl-phenyl}-5-methanesulfonyl-4,5,6,7-tetrahydro-pyrazolo[4,3-c]pyridin-1-yl)-propyl]-piperidin-4-yl}-pyrrolidin-2-one] | 80 |
| CS(=O)(=O)N1CCc2c(c(-c3ccc(C(F)(F)F)c(SCC(=O)N4CCOCC4)c3)nn2CCCN2CCCCC2)C1 [Example 253, 5-(Methylsulfonyl)-3-{3-[(2-morpholin-4-yl-2-oxoethyl)sulfanyl]-4-(trifluoromethyl)phenyl}-1-(3-piperidin-1-ylpropyl)-4,5,6,7-tetrahydro-1H-pyrazolo[4,3-c]pyridine] | 470 |
| CS(=O)(=O)N1CCc2c(c(-c3ccc(C(F)(F)F)c(SCCN4CCOCC4)c3)nn2CC(O)CN2CCOC(CO)C2)C1 (centres unmarked) [Example 482, 1-[2-(Hydroxymethyl)morpholin-4-yl]-3-[5-(methylsulfonyl)-3-{3-[(2-morpholin-4-ylethyl)sulfanyl]-4-(trifluoromethyl)phenyl}-4,5,6,7-tetrahydro-1H-pyrazolo[4,3-c]pyridin-1-yl]propan-2-ol] | 1100 |
| CCN1CCc2c(c(-c3ccc(C(F)(F)F)c(SCC(=O)N4CCCC4)c3)nn2CC(O)CN2CCC(N3CCCC3=O)CC2)C1 (centres unmarked) [Example 281, 1-{1-[3-(5-Ethyl-3-{3-[(2-oxo-2-pyrrolidin-1-ylethyl)sulfanyl]-4-(trifluoromethyl)phenyl}-4,5,6,7-tetrahydro-1H-pyrazolo[4,3-c]pyridin-1-yl)-2-hydroxypropyl]piperidin-4-yl}pyrrolidin-2-one] | 1560 |
| CS(=O)(=O)NC1CCN(C[C@H](O)Cn2nc(-c3ccc(C(F)(F)F)c(SCCN4CCC(F)CC4)c3)c3c2CCNC3)CC1 [Example 477, N-{1-[(2S)-3-{3-[3-{[2-(4-Fluoropiperidin-1-yl)ethyl]sulfanyl}-4-(trifluoromethyl)phenyl]-4,5,6,7-tetrahydro-1H-pyrazolo[4,3-c]pyridin-1-yl}-2-hydroxypropyl]piperidin-4-yl}methanesulfonamide] | 4530 |
| CS(=O)(=O)N1CCc2c(c(-c3ccc(C(F)(F)F)c(SCCN4CCC(F)(F)CC4)c3)nn2C[C@@H](O)CN2CCC(C3CCCCC3)CC2)C1 [Example 214, (2S)-1-(4-Cyclohexylpiperidin-1-yl)-3-{3-[3-{[2-(4,4-difluoropiperidin-1-yl)ethyl]sulfanyl}-4-(trifluoromethyl)phenyl]-5-(methylsulfonyl)-4,5,6,7-tetrahydro-1H-pyrazolo[4,3-c]pyridin-1-yl}propan-2-ol] | 20 |
| NC(=O)C1CCN(CC(O)Cn2nc(-c3ccc(C(F)(F)F)c(SCCN4CCCCC4)c3)c3c2CCNC3)CC1 (centres unmarked) [Example 309, 1-[2-Hydroxy-3-(3-{3-[(2-piperidin-1-ylethyl)sulfanyl]-4-(trifluoromethyl)phenyl}-4,5,6,7-tetrahydro-1H-pyrazolo[4,3-c]pyridin-1-yl)propyl]piperidine-4-carboxamide] | 3860 |
| CC(=O)N1CCN(CCSc2cc(-c3nn(CC(O)CN4CCC(N5CCOCC5)CC4)c4c3CN(S(C)(=O)=O)CC4)ccc2C(F)(F)F)CC1 (centres unmarked) [Example 849, 1-{3-[3-{[2-(4-Acetylpiperazin-1-yl)ethyl]sulfanyl}-4-(trifluoromethyl)phenyl]-5-(methylsulfonyl)-4,5,6,7-tetrahydro-1H-pyrazolo[4,3-c]pyridin-1-yl}-3-(4-morpholin-4-ylpiperidin-1-yl)propan-2-ol] | 620 |
| CS(=O)(=O)N1CCc2c(c(-c3ccc(C(F)(F)F)c(SCCN4CCC(F)CC4)c3)nn2CC(O)CN2CCC(O)(c3ccccn3)CC2)C1 (centres unmarked) [Example 787, 1-(3-{3-[3-{[2-(4-Fluoropiperidin-1-yl)ethyl]sulfanyl}-4-(trifluoromethyl)phenyl]-5-(methylsulfonyl)-4,5,6,7-tetrahydro-1H-pyrazolo[4,3-c]pyridin-1-yl}-2-hydroxypropyl)-4-pyridin-2-ylpiperidin-4-ol] | 35 |
| N#Cc1ccc(C2CCN(CC(O)Cn3nc(-c4ccc(C(F)(F)F)c(SCCN5CCCCC5)c4)c4c3CCNC4)CC2)cc1 (centres unmarked) [Example 427, 4-{1-[2-Hydroxy-3-(3-{3-[(2-piperidin-1-ylethyl)sulfanyl]-4-(trifluoromethyl)phenyl}-4,5,6,7-tetrahydro-1H-pyrazolo[4,3-c]pyridin-1-yl)propyl]piperidin-4-yl}benzonitrile] | 95 |
| CS(=O)(=O)NC1CCN(CC(O)Cn2nc(-c3ccc(C(F)(F)F)c(SCCN4CCCC(O)C4)c3)c3c2CCNC3)CC1 (centres unmarked) [Example 463, N-[1-(2-Hydroxy-3-{3-[3-{[2-(3-hydroxypiperidin-1-yl)ethyl]sulfanyl}-4-(trifluoromethyl)phenyl]-4,5,6,7-tetrahydro-1H-pyrazolo[4,3-c]pyridin-1-yl}propyl)piperidin-4-yl]methanesulfonamide] | 6440 |
| CN1CCc2c(c(-c3ccc(C(F)(F)F)c(SCCN4CCCCC4)c3)nn2CC(O)CN2CCC(c3ccccn3)CC2)C1 (centres unmarked) [Example 248, 1-(5-Methyl-3-{3-[(2-piperidin-1-ylethyl)sulfanyl]-4-(trifluoromethyl)phenyl}-4,5,6,7-tetrahydro-1H-pyrazolo[4,3-c]pyridin-1-yl)-3-(4-pyridin-2-ylpiperidin-1-yl)propan-2-ol] | 260 |
| CN1CCCN(CCSc2cc(-c3nn(CCCN4CCC(N5CCCC5=O)CC4)c4c3CN(S(C)(=O)=O)CC4)ccc2C(F)(F)F)CC1 [Example 45] | 530 |
| CN1CCC[C@H]1C(=O)N1CCc2c(c(-c3ccc(C(F)(F)F)c(SCCN4CCC(F)CC4)c3)nn2CC(O)CN2CCCCC2)C1 (stereo partly drawn) [Example 582, 1-{3-[3-{[2-(4-Fluoropiperidin-1-yl)ethyl]sulfanyl}-4-(trifluoromethyl)phenyl]-5-(1-methyl-L-prolyl)-4,5,6,7-tetrahydro-1H-pyrazolo[4,3-c]pyridin-1-yl}-3-piperidin-1-ylpropan-2-ol] | 530 |
| CS(=O)(=O)N1CCc2c(c(-c3ccc(C(F)(F)F)c(SCCN4CCC(F)CC4)c3)nn2CC(O)CN2CCC(C(=O)O)CC2)C1 (centres unmarked) [Example 610, 1-(3-{3-[3-{[2-(4-Fluoropiperidin-1-yl)ethyl]sulfanyl}-4-(trifluoromethyl)phenyl]-5-(methylsulfonyl)-4,5,6,7-tetrahydro-1H-pyrazolo[4,3-c]pyridin-1-yl}-2-hydroxypropyl)piperidine-4-carboxylic acid] | 270 |
